Assay results taken from ChEMBL document CHEMBL1131221, “2'-C-Methyl analogues of selective adenosine receptor agonists: synthesis and binding studies” (J Med Chem, 1998).

The chains behind the UniProt entries cited, without tags or fusion partners.
UniProt P28190, whole entry: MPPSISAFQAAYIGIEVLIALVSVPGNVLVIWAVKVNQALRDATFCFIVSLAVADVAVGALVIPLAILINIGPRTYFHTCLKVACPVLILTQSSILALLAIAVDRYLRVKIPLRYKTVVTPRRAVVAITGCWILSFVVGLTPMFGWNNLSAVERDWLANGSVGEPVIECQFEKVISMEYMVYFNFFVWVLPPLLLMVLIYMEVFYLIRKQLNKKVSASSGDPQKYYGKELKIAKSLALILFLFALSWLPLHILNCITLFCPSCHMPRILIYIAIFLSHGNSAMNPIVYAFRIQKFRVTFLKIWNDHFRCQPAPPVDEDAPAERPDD

Tests used:
[1] = Inhibitory selectivity at Adenosine 2A receptor compared to Adenosine 1 receptor.
[2] = Inhibitory selectivity at Adenosine A3 receptor compared to Adenosine 2A receptor.
[3] = tested on: Adenosine receptor A2a (Bos taurus); details: Striatum, Membrane, concentration not given here
[4] = Inhibitory selectivity at Adenosine A3 receptor compared to Adenosine 1 receptor.
Adenosine receptor A1 = Adenosine receptor A1 (Bos taurus, UniProt P28190)

Row | Selectivity [1] | Selectivity [2] | inhibition [3] | Selectivity [4] | Ki (Adenosine receptor A1) | SMILES
1 | > 200 | < 1 | 17% | 200 |  | C[C@@H](Cc1ccccc1)Nc1ncnc2c1ncn2C1O[C@H](CO)[C@@H](O)[C@@]1(C)O (stereo partly specified)
2 |  |  |  |  | 740 nM | C[C@@]1(O)[C@H](O)[C@@H](CO)O[C@H]1n1cnc2c(N)ncnc21
3 | > 202 |  | 12% | > 202 |  | C[C@@]1(O)[C@@H](CO)O[C@@H](n2cnc3c(N)ncnc32)[C@@H]1O
4 | 1580 | 0.14 |  | 230 |  | C[C@H](Cc1ccccc1)Nc1ncnc2c1ncn2[C@@H]1O[C@H](CO)[C@@H](O)[C@@]1(C)O
